What was measured:
[1] = molecular target: recombinant human Meningioma Expressed Antigen 5 (MGEA5), also referred to as O-GlcNAcase (OGA) (Homo sapiens, UniProt O60502); experiment: OGA biochemical assay (inhibition of FM-GlcNAc hydrolysis, fluorescence); settings: FM-GlcNAc substrate
Source text: The assay is based on the inhibition of the hydrolysis of fluorescein mono-β-D-N-Acetyl-Glucosamine (FM-GlcNAc) (Mariappa et al. 2015, Biochem J 470:255) by the recombinant human Meningioma Expressed Antigen 5 (MGEA5), also referred to as O-GlcNAcase (OGA). The hydrolysis FM-GlcNAc (Marker Gene technologies, cat #M1485) results in the formation of β-D-N-glucosamineacetate and fluorescein. The fluorescence of the latter can be measured at excitation wavelength 485 nm and emission wavelength 538 nm. An increase in enzyme activity results in an increase in fluorescence signal. Full length OGA enzyme was purchased at OriGene (cat #TP322411). The enzyme was stored in 25 mM Tris.HCl, pH 7.3, 100 mM glycine, 10% glycerol at −20° C. Thiamet G and GlcNAcStatin were tested as reference compounds (Yuzwa et al. 2008 Nature Chemical Biology 4:483; Yuzwa et al. 2012 Nature Chemical Biology 8:393). The assay was performed in 200 mM Citrate/phosphate buffer supplemented with 0.005% Tween-20. […]
50 nl of a compound dissolved in DMSO was dispensed on Black Proxiplate™ 384 Plus Assay plates (Perkin Elmer, #6008269) and 3 μl fl-OGA enzyme mix added subsequently. […] Fluorescence was quantified in the Thermo Scientific Fluoroskan Ascent or the PerkinElmer EnVision with excitation wavelength 485 nm and emission wavelength 538 nm. […]

Sequences of proteins named here, by UniProt entry; tags and fusion partners are left off.
UniProt O60502, whole entry: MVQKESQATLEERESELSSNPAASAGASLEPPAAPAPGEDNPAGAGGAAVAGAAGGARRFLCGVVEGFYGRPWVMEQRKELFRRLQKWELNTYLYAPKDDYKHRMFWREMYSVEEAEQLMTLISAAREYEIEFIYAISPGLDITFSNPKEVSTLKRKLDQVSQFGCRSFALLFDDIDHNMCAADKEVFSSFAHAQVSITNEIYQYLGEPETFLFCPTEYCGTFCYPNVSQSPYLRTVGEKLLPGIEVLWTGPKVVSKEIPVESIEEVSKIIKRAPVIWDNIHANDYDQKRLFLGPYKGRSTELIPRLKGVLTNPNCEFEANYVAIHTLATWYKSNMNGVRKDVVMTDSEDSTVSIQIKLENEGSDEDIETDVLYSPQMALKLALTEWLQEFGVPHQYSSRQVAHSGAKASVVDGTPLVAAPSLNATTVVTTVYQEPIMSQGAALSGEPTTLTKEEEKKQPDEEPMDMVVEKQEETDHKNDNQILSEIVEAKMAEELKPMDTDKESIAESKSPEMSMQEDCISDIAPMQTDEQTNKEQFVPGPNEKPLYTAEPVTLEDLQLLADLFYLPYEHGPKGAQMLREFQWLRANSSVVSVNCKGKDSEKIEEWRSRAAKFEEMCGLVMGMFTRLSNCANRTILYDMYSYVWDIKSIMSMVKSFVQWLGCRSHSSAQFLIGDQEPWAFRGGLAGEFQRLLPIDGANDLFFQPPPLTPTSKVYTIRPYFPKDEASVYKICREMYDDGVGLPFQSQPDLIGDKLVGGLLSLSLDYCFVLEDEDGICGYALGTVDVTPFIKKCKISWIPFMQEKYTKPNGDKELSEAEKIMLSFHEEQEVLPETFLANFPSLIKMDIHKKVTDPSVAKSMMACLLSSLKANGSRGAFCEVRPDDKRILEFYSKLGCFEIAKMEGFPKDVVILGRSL

OGA = OGA (Homo sapiens, UniProt O60502); experiment: OGA cellular assay (ICC detection of O-GlcNAcylated proteins in HEK293 cells inducible for P301L mutant human Tau)
Description: HEK293 cells inducible for P301L mutant human Tau (isoform 2N4R) were established at Janssen. Thiamet-G was used for both plate validation (high control) and as reference compound (reference EC50 assay validation). OGA inhibition is evaluated through the immunocytochemical (ICC) detection of O-GlcNAcylated proteins by the use of a monoclonal antibody (CTD110.6; Cell Signaling, #9875) detecting O-GlcNAcylated residues as previously described (Dorfmueller et al. 2010 Chemistry & biology, 17:1250). Inhibition of OGA will result in an increase of O-GlcNAcylated protein levels resulting in an increased signal in the experiment. Cell nuclei are stained with Hoechst to give a cell culture quality control and a rough estimate of immediate compounds toxicity, if any. ICC pictures are imaged with a Perkin Elmer Opera Phenix plate microscope and quantified with the provided software Perkin Elmer Harmony 4.1.
Cells were propagated in DMEM high Glucose (Sigma, #D5796) following standard procedures. 2 days before the cell assay cells are split, counted and seeded in Poly-D-Lysine (PDL) coated 96-wells (Greiner, #655946) plate at a cell density of 12,000 cells per cm^2 (4,000 cells per well) in 100 μl of Assay Medium (Low Glucose medium is used to reduce basal levels of GlcNAcylation) (Park et al. 2014 The Journal of biological chemistry 289:13519). […]

COc1cc(C[C@H]2CCN(C(C)c3ccc4c(n3)OCCO4)C2)cc(C)n1 (stereo partly shown)
Enzymatic hOGA; pIC50 ([1]; 6 h at room temperature): 6.9 | Enzymatic Emax (%) ([1]; maximal effect): 100% | Cellular hOGA; pEC50 (OGA; 6 hours incubation, ICC O-GlcNAcylation): 6.1 | Cellular Emax (%) (OGA; maximum defined by Thiamet G at 200 uM): 51%

— US20210277015A1, “OGA INHIBITOR COMPOUNDS” (Janssen Pharmaceutica NV, priority 2018, published 2021)
